In patent US20230084144A1, “THERAPEUTIC COMBINATIONS OF DRUGS AND METHODS OF USING THEM” (ConSynance Therapeutics, Inc., priority 2020, published 2023) one finds inhibition data, which are given here for one molecule.

The chains behind the UniProt entries cited, without tags or fusion partners.
UniProt P31645, whole entry: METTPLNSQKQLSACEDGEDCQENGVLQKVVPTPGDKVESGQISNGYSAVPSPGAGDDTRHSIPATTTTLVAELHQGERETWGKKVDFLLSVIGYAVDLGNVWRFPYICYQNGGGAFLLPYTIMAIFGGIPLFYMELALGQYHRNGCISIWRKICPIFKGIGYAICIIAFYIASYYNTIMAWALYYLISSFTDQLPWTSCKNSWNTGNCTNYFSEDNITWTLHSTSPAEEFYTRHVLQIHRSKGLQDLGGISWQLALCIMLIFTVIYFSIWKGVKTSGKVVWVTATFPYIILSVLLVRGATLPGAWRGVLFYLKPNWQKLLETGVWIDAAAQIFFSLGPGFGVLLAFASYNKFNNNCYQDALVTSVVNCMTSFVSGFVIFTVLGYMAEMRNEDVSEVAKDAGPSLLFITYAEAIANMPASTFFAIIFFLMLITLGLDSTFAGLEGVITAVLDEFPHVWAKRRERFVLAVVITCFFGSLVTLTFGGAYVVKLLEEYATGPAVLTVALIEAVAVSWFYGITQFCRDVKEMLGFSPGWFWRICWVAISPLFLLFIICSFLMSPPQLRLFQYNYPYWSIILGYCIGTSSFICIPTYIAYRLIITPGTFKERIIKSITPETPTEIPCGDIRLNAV

For the test, the target named is T1, Transporter, Serotonin (5-Hydroxytryptamine) (SERT) (Homo sapiens, UniProt P31645).
T1 construct: host or cells: HEK-293 cells
As to the kind of experiment: Radioligand binding, Transporter, Serotonin (SERT) (Eurofin Discovery 274030). Conditions: 10 nM compound.

The structures appear in SMILES notation.

As a reminder, the inhibition is the percentage by which the read-out fell short of the control. Higher therefore signals strong suppression. Molecule `Clc1ccc(C2CNCc3cc(-c4ccc5ncnn5c4)ccc32)cc1Cl` (stereo not shown) [Formula I, 7-([1,2,4]triazolo[1,5-a]pyridin-6-yl)-4-(3,4-dichlorophenyl)-1,2,3,4-tetrahydroisoquinoline] came in with an inhibition at 0.01 µM of 59%.
